# From patent US6489352B2, “Conformationally constrained compounds as pharmaceutical agents” (Warner-Lambert Company, priority 1998, dated 2002)
# Chains of the proteins cited; added tags and fusions are not shown. Lines headed by an entry give the natural chain unless they say otherwise; changes in a name come on top. Residues count along the entry.
# UniProt A0A287BIN3, 25-1109: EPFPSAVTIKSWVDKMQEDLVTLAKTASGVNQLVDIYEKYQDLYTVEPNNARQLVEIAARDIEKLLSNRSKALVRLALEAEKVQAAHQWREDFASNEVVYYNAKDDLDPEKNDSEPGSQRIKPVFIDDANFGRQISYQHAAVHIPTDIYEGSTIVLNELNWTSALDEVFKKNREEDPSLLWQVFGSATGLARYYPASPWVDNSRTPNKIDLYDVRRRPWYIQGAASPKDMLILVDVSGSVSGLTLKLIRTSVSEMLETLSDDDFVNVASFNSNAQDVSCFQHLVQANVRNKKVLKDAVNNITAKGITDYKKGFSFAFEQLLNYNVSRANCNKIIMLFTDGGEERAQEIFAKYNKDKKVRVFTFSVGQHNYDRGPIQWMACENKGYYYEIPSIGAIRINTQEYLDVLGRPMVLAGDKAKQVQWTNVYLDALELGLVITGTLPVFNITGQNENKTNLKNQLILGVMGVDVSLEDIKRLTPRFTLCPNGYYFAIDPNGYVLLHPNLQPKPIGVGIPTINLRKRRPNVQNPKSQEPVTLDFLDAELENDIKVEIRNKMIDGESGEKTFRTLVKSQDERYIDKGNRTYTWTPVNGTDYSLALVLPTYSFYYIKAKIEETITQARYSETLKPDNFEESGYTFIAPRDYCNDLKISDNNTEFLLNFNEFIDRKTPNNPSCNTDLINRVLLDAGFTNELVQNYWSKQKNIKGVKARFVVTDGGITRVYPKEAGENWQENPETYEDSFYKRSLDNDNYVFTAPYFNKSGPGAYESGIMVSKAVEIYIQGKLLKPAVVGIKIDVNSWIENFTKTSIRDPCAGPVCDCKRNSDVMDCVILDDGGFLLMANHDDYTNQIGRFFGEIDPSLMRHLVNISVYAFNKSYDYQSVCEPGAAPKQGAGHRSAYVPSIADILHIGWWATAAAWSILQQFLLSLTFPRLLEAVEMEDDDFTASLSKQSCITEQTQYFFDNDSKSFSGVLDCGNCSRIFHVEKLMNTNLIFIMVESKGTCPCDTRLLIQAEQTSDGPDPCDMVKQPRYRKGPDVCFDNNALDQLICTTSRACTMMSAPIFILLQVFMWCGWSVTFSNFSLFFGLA
# Molecular target: T1, α2δ subunit derived from porcine brain tissue (Sus scrofa, UniProt A0A287BIN3)
# T1 construct: the α2δ subunit derived from porcine brain tissue was used; from tissue; host or cells: porcine brain tissue
# Test: radioligand binding assay using [3H]gabapentin and the α2δ subunit
smiles,measurement,value
"NCC1(CC(=O)O)CCCCC1 [Gabapentin, 1-(aminomethyl)-cyclohexaneacetic acid, reference compound]",IC50,100 to 120 nM
